Reference: patent US11173144B2, “Adrenergic receptor modulating compounds and methods of using the same” (The Board of Trustees of the Leland Stanford Junior …, priority 2016, dated 2021)

Test: Microsomal stability assay, human
Conditions: 60 min

With COc1ccccc1OCCNC[C@H](O)COc1ccc(O)cc1 [Compound 43] the “stability in human microsomes” value was “almost no reduction”.
